assay: soluble on expression in E. coli; label from the status in PepcDB or PDB records

Soluble on expression in E. coli, soluble:
ASSRWFFTREQLENTPSRRCGVEADKELSCRQQAANLIQEMGQRLNVSQLTINTAIVYMHRFYMHHSFTKFNKNIISSTALFLAAKVEEQARKLEHVIKVAHACLHPLEPLLDTKCDAYLQQTRELVILETIMLQTLGFEITIEHPHTDVVKCTQLVRASKDLAQTSYFMATNSLHLTTFCLQYKPTVIACVCIHLACKWSNWEIPVSTDGKHWWEYVDPTVTLELLDELTHEFLQILEKTPNRLKKIRNWRANQAA
GVYHREARSGKYKLTYAEAKAVCEFEGGHLATYKQLEAARKIGFHVCAAGWMAKGRVGYPIVKPGPNCGFGKTGIIDYGIRLNRSERWDAYCYNPHAK
MGLLTILKKMKQKERELRLLMLGLDNAGKTTILKKFNGEDIDTISPTLGFNIKTLEHRGFKLNIWDVGGQKSLRSYWRNYFESTDGLIWVVDSADRQRMQDCQRELQSLLVEERLAGATLLIFANKQDLPGALSSNAIREVLELDSIRSHHWCIQGCSAVTGENLLPGIDWLLDDISSRIFTADLEHHHHHH
MSVELEEALPVTTAEGMAKKVTKAGGSAALSPSKKRKNSKKKNQPGKYSQLVVETIRRLGERNGSSLAKIYTEAKKVPWFDQQNGRTYLKYSIKALVQNDTLLQVKGTGANGSFKLNRKKLEGGGERRGAPAAATAPAPTAHKAKKAAPGAAGSRRADKKPARGQKPEQRSHKKGAGAKKDKGGKAKKTAAAGGKKVKKAAKPSVPKVPKGRK
SAAPSDGFKPRERSGGEQAQDWDALPPKRPRLGAGNKIGGRRLIVVLEGASLETVKVGKTYELLNCDKHKSILLKNGRDPGEARPDITHQSLLMLMDSPLNRAGLLQVYIHTQKNVLIEVNPQTRIPRTFDRFCGLMVQLLHKLSVRAADGPQKLLKVIKNPVSDHFPVGCMKVGTSFSIPVVSDVRELVPSSDPIVFVVGAFAHGKVSVEYTEKMVSISNYPLSAALTCAKLTTAFEEVWGVI
SHLKSKKGQSTSRHKKLMFKTE
SPILGYWKIKGLVQPTRLLLEYLEEKYEEHLYERDEGDKWRNKKFELGLEFPNLPYYIDGDVKLTQSMAIIRYIADKHNMLGGCPKERAEISMLEGAVLDIRYGVSRIAYSKDFETLKVDFLSKLPEMLKMFEDRLCHKTYLNGDHVTHPDFMLYDALDVVLYMDPMCLDAFPKLVCFKKRIEAIPQIDKYLKSSKYIAWPLQGWQATFGGGDHPPKSDLVPRGSRRASVGSRMHYPGAFTYSPTPVTSGIGIGMSAMGSATRYHTYLPPPYPGEFIVID

From the DeepSol protein solubility set
